Measured values as given in patent US20030083271A1, “Topoisomerase I selective cytotoxic sugar derivatives of indolopyrrolocarbazoles” (priority 2001, published 2003).

Amino acid sequences for entries named in this document (tags omitted).
UniProt P11387, whole entry: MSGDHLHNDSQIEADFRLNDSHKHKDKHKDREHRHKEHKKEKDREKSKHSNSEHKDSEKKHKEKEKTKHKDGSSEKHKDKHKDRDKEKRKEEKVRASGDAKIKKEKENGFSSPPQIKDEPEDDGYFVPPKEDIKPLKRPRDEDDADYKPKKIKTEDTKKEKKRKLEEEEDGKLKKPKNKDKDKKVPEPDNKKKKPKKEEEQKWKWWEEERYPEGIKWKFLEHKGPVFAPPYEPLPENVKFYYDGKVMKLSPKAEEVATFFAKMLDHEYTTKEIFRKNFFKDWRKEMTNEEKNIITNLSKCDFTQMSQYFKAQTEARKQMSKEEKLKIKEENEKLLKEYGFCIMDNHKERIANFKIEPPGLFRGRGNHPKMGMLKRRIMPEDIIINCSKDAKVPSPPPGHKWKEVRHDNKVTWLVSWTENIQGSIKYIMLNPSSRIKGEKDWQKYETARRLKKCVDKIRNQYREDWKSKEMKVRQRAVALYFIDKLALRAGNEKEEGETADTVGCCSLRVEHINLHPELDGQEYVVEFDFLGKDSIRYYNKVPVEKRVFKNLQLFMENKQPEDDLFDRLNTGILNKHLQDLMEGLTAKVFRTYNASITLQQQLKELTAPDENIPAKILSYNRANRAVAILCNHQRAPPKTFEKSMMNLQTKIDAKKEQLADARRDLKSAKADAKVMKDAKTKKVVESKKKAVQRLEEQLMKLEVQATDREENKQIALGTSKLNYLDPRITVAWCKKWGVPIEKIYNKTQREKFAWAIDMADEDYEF

What was measured:
[1] = biological target: purified human topoisomerase I (Homo sapiens, UniProt P11387); test: Topoisomerase I-mediated single strand DNA break induction (in vitro); conditions: read-out: Topo I EC50; median effect concentration for inducing single-strand breaks in the DNA substrate
Experimental: Topoisomerase I activity was measured as described below. The procedure for assaying compound-induced, topoisomerase I-mediated single strand breaks in DNA was essentially that described by Hsiang, et al., (J. Biol. Chem. 1985, 260, 14873-14878). Samples dissolved in 100% DMSO as either […] or 10 mg/ml solutions, unless otherwise stated, were diluted in Tris-EDTA buffer. Marine bacteriophage PM2 DNA (Boehringer Mannheim) was also diluted in Tris-EDTA buffer to a concentration of 0.02 μg/μl. Different dilutions of the compound being evaluated were mixed with diluted DNA and this mixture was added to […] (one unit of enzyme activity is defined as the amount capable of relaxing 100 ng of supercoiled DNA in approximately 30 minutes at 37° C.) aliquots of purified human topoisomerase I (Topogen) in 2X reaction buffer to start the reaction. The compound-DNA-enzyme mixture was incubated for 30 minutes at 37° C. before stopping the reaction with warm stop buffer containing sodium dodecyl sulfate and proteinase K (Sigma). These mixtures were allowed to incubate at 37° C. for another 10 minutes, at which time the mixtures were removed from the waterbath and extracted with a 24:1 mixture of chloroform/isoamyl alcohol. Following centrifugation, aliquots of the aqueous phases were placed in wells of a 0.9% agarose (SeaKem) gel in Tris-borate buffer containing 0.5 μg/ml of ethidium bromide and subjected to electrophoresis for 15 hours to separate the different topological isomers and nicked and broken DNAs. After destaining the gel in water, the ethidium bromide stained DNA reaction products were visualized by exposing the gel to UV irradiation. Negatives of the photographs of the irradiated gels were scanned with a densitometer and areas under the peaks were calculated in order to obtain percent single strand DNA break formation for each sample. A median effective concentration (EC50) was obtained for each compound by interpolation between points of the resulting dose-effect curve which defines the potency of the compound for its effect in inducing topoisomerase I-mediated single strand breaks in DNA. The topoisomerase I activities for certain compounds of the present invention are shown below in Table I.

[2] = test system: P388 murine leukemia cells; test: In vitro cell-based cytotoxicity, parental P388 cells; conditions: read-out: P388 IC50, median cytotoxic concentration, 3 days continuous exposure
Experimental: The proliferation inhibition activity against the murine P388 cell line was measured as follows. Evaluation of a soluble tetrazolium/formazan assay for cell growth and drug sensitivity in culture, using human and other tumor cell lines, was done according to the procedure described in Cancer Res. 1988, 48, 4827-4833. Cells were plated at 4000 cells/well in 96 well microtiter plates and 24 h later drugs were added and serially diluted. The cells were incubated at 37° C. for 72 h, at which time a tetrazolium dye, XTT, containing phenazine methosulfate was added. A dehydrogenase enzyme in live cells reduced the XTT to a form that absorbs light at 450 nm, which could be quantitated spectrophotometrically. The greater the absorbance the greater the number of live cells. The results are expressed as an IC50, which is the drug concentration required to inhibit cell proliferation (i.e., absorbance at 450 nm) to 50% of that of untreated control cells.
(§1) Similarly, P338 murine leukemia cells were maintained in RPMI 1640 supplemented with 20% fetal bovine serum and 10 μM 2-mercaptoethanol. A camptothecin resistant subline, P388/CPT45, was selected for resistance to camptothecin and is over 1000-fold resistant to this compound (Woessner, et al. Oncol. Res. 1992, 4, 481-488).
(§2) In vitro cytotoxicity was assessed in tissue culture cells by MTS (3-(4,5-dimethylthiazol-2-yl)-5-(3-carboxymethoxyphenyl)-2-(4-sulphenyl)-2H-tetrazolium, inner salt) assay (Riss and Moravec, Mol. Biol. Cell 1992, 3 (Suppl.), 184a). Cells were plated at 8,000 cell/well in 96 well microtiter plates and 24 hours later serial dilutions of the test compounds were made and added to the cells. The cells were incubated at 37° C. for 72 hours, at which time the tetrazolium dye, MTS at 333 μg/ml (final concentration), in combination with the electron coupling agent phenazine methosulfate at 25 μM (final concentration) was added. A dehydrogenase enzyme in live cells reduces the MTS to a form that absorbs light at 492 nm which can be quantitated spectrophotometrically. The greater the absorbance the greater the number of live cells. The results are expressed as an IC50, which is the drug concentration required to inhibit cell proliferation (i.e., absorbance at 492 nm) to 50% of that of untreated control cells.
The cytotoxic activity for certain compounds of the present invention, in both parental P388 and the camptothecin-resistant P388/CPT45 cell lines are shown below in Table I.

[3] = test system: P388/CPT45 cells; test: Cytotoxicity in camptothecin-resistant P388/CPT45 cells relative to parental P388 (selectivity index R/S); conditions: IC50 P388/CPT45 cells divided by IC50 parental P388 cells
Description: The present invention includes fluoro sugar and other sugar derivatives of indolopyrrolocarbazoles of formula (I), as defined above. […] Most importantly, the instant invention describes topo I active compounds, related to compounds disclosed in WO 98/07433 and co-pending U.S. application, Ser. No. 08/914566 (both herein incorporated by reference), which display a surprising and unexpected selectivity index when evaluated for cytotoxicity in certain cell lines which express normal levels of topo I required for cell proliferation, compared with cell lines that are deficient in or underexpress topo I. Said “selectivity index” (R/S) was generated by dividing the cytotoxic IC50 of a particular compound against a camptothecin-resistant murine leukemia cell line, P388/CPT45, by the IC50 generated when using the parent P388 cell line. […] A level of selectivity was judged to be advantageous and beneficial in, for example, modulating potential undesirable side effects and/or toxicity. The compounds of the present invention were selected from compounds generically disclosed in WO 98/07433 and co-pending U.S. patent application, Ser. No. 08/914566, on the basis of an unexpected and unpredictable selectivity index (see Table I and II). […] Simple changes in the substitution of the sugar portion or the indolopyrrolocarbazole portion of the present invention will change the selectivity. This change in selectivity is not predictable by one skilled in the art.
as §1
as §2, with “control cells. […]” for “control cells.”

EC50 [1]	Compound	IC50 [2]	Selectivity Index R/S [3]
30 nM	NC[C@H]1O[C@@H](n2c3ccc(F)cc3c3c4c(c5c6cc(F)ccc6oc5c32)C(=O)NC4=O)[C@H](O)[C@@H](O)[C@@H]1O	1780 nM	5.5
60 nM	O=C1NC(=O)c2c1c1c3cc(F)ccc3[nH]c1c1c2c2cc(F)ccc2n1[C@@H]1O[C@H](CF)[C@H](F)[C@H](O)[C@H]1O	18 nM	108
280 nM	O=C1NC(=O)c2c1c1c3ccc(F)cc3[nH]c1c1c2c2ccc(F)cc2n1[C@@H]1O[C@H](CO)[C@@H](O)[C@H](O)C1=O	127 nM	29.3
50 nM	O=C1NC(=O)c2c1c1c3cc(Br)ccc3oc1c1c2c2cc(F)ccc2n1[C@@H]1O[C@H](CO)[C@@H](O)[C@H](O)[C@H]1O	47 nM	177
